# From patent US8115060B2, “Means and methods of controlling plant seed germination” (Applied Biotechnology Institute, Inc., priority 2008, dated 2012)
# Legend:
# [1] = system: transformed cell cultures (avidin gene, barley amylase promoter); settings: multiple lines transferred every two weeks over six weeks; FIG. 4
# [2] = system: transgenic seedlings (avidin gene)
# Text: To test whether expression of avidin may allow the seeds to germinate but fail to mature or grow at a slower rate we examined the growth of seedlings immediately following germination.
# [3] = 3 days after treatment with biotin
compound,measurement,setting,value
O=C(O)CCCC[C@@H]1SC[C@@H]2NC(=O)N[C@@H]21 [biotin],growth of cultures with or without biotin in the media,[1],no significant difference in growth
same,number of plants rated No growth,[2]; [3],2
same,number of plants rated Rapid growth (root length >= 1 cm),[2]; [3],15
same,number of plants rated Slow growth (root length < 1 cm),[2]; [3],3
same,growth of transgenic seedlings with biotin compared with without,"[2]; immediately following germination, vast majority of transgenic seedlings",grew faster with biotin than without
